The values below are quoted from earlier work in PMC8713164, “Development of a 1,2,4-Triazole-Based Lead Tankyrase Inhibitor: Part II” (Journal of Medicinal Chemistry, 2021).

What is called IC50 is the point on the concentration scale where inhibition reaches its midpoint.

The target of series [1] is T1, TNKS2 (Homo sapiens, UniProt Q9H2K2).
T1 construct: TNKS2 (residues 873–1162); made in house
T1 sequence (Q9H2K2 873-1162): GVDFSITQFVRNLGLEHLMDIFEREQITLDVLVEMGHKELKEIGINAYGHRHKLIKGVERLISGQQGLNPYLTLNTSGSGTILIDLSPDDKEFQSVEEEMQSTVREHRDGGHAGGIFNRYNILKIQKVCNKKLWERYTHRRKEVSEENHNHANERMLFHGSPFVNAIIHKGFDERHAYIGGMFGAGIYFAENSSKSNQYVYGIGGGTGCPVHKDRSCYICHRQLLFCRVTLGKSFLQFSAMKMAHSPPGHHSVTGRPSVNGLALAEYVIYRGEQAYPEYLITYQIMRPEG
The note with it: cited from earlier work.

Series [2] has as its target T2, TNKS1 (Homo sapiens, UniProt O95271).
T2 sequence (O95271 1030-1317): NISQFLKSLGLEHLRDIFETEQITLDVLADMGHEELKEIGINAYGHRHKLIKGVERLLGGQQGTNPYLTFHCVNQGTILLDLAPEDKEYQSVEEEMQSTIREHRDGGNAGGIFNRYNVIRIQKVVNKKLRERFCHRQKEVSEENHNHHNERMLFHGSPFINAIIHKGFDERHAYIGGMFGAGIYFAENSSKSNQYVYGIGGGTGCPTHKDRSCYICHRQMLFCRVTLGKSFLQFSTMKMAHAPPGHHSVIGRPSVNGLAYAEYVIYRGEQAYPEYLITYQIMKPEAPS
The note with it: cited from earlier work.

For `CCOc1ccc(-c2nnc([C@H]3C[C@H](NC(=O)c4ccccn4)C3)n2-c2ccccc2F)nc1` [Compound 1], in series [1], the IC50 is 14 nM and the “TNKS2 pIC50 ± SEM” value is reported as 14 (7.85 ± 0.04). Also, the “TNKS1 pIC50 ± SEM” value in series [2] is given as 6.90 ± 0.05. Moreover, the IC50 in series [2] (read-out: TNKS1 IC50) was 127 nM.
